Assay results published in patent publication US6962920B2, “Pyrimidine derivatives and methods of making and using these derivatives” (Duquesne University of the Holy Ghost, priority 1992, dated 2005).

How the values were obtained:
[1] = biological target: T1, Pc DHFR (Pneumocystis carinii, UniProt P16184); assay type: biochemical; conditions: Table 7
T1 sequence (P16184 1-206): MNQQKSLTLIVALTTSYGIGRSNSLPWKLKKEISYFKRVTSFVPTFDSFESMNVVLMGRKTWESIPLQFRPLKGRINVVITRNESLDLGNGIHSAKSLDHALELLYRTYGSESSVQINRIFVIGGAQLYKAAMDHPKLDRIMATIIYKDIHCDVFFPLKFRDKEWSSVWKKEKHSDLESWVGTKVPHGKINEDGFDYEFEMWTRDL

[2] = biological target: T2, human recombinant (REC) DHFR (Homo sapiens, UniProt P00374); test: Inhibition of human recombinant DHFR; assay type: biochemical; conditions: Table 17
T2 sequence (P00374 1-187): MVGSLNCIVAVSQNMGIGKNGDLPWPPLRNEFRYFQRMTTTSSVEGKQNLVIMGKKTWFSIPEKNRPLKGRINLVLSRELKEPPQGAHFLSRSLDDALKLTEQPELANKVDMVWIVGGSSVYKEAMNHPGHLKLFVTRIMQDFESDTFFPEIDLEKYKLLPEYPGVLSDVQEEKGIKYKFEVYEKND

Structure (SMILES) | IC50 [1] [nM] | IC50 [2] [nM]
COc1ccc(OC)c(Cc2cnc3nc(N)nc(N)c3c2C)c1 [PTX, piritrexim, reference compound] | 38 | –
Nc1nc(N)c2c(CCc3ccc(C(=O)N[C@@H](CCC(=O)O)C(=O)O)cc3)coc2n1 [Compound 33, N-[4-[2-(2,4-diaminofuro[2,3-d]pyrimidin-5-yl)ethyl]-benzoyl]-L-glutamic acid] | – | 1000
